Data on ten compounds can be found in article PMC6156125, “Chemistry and Hypoglycemic Activity of GPR119 Agonist ZB-16” (Frontiers in Endocrinology, 2018).

The chains behind the UniProt entries cited, without tags or fusion partners.
UniProt Q8TDV5, whole entry: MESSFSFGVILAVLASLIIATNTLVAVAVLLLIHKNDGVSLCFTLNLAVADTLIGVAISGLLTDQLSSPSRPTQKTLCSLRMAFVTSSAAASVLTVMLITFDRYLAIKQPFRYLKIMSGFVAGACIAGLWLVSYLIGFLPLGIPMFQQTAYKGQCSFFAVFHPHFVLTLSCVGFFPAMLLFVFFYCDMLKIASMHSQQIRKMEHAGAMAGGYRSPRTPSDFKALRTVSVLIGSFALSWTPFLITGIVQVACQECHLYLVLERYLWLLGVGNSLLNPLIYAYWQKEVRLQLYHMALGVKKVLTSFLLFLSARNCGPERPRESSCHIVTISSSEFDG

The structures appear in SMILES notation.

The target in this assay is human GPR119 (hGPR119) (Homo sapiens, UniProt Q8TDV5). In words: Specific (agonistic) activity in vitro, cAMP increase (Lance Ultra cAMP kit) in CHO-K1 cells expressing hGPR119.

Broadly, the EC50 is the concentration needed to bring the measured effect to its halfway point. Read a high EC50 as lower potency in that assay.

In turn, `CCOC(=O)N1CCC(NC(=O)c2ccc3c(c2)N(CC)C(=O)c2ccccc2S3(=O)=O)CC1` returned an EC50 of 19400 nM.
For `O=C(NCCc1ccccc1)c1nnc(C(Nc2ccccc2)c2ccc(Cl)cc2)o1` (stereo not shown), the EC50 is 2740 nM.
`O=C1CSC2(C(=O)Nc3ccccc32)N1c1cccc(C(F)(F)F)c1` (stereo not shown) returned an EC50 of 537 nM.
The result for `CCN(CCNC(=O)c1ccc2c(c1)N(CC)C(=O)c1ccccc1S2(=O)=O)c1ccccc1` reads 3300 nM; that for `CCN1C(=O)c2ccccc2S(=O)(=O)c2ccc(C(=O)NCCc3ccc(OC)c(OC)c3)cc21`, 2200 nM.
In the case of `CCN1C(=O)c2ccccc2S(=O)(=O)c2ccc(C(=O)N3CCC(Cc4ccccc4)CC3)cc21`, the EC50 worked out at 2420 nM.
The compound `CCN1C(=O)c2ccccc2S(=O)(=O)c2ccc(C(=O)N3CCN(Cc4ccccc4)CC3)cc21` gave an EC50 of 11700 nM.
In the case of `CCCCNC(=O)c1ccc2c(c1)N(CC)C(=O)c1ccccc1S2(=O)=O`, the EC50 is 3100 nM.
Then `CCc1ccc(NC(=O)NC2=C(C#N)C(CC)(CC)Cc3ccccc32)cc1`, with 431 nM; and `NC(=O)c1c(NC(=O)C2CCCN(C(=O)c3ccc4c(c3)OCCO4)C2)sc2c1CCCC2` (stereo not shown), with 2750 nM.
